# Reference: patent publication US20230339863A1, “INDAZOLE DERIVATIVES AS CANNABINOID RECEPTOR PARTIAL AGONISTS” (RESEARCH TRIANGLE INSTITUTE, priority 2020, published 2023)
# The chains behind the UniProt entries cited, without tags or fusion partners.
# UniProt P21554, whole entry: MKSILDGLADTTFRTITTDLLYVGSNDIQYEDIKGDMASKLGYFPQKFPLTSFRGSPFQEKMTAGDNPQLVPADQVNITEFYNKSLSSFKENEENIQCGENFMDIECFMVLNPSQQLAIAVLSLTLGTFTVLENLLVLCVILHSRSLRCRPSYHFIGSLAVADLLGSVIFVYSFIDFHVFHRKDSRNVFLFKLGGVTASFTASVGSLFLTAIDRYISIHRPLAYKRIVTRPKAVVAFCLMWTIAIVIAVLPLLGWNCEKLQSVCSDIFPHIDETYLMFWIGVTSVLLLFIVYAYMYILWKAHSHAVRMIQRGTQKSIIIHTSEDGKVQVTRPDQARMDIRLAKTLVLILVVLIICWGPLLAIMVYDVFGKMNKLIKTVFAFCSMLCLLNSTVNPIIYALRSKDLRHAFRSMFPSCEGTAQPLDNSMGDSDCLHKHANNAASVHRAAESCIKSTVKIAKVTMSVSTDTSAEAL
# UniProt P34972, whole entry: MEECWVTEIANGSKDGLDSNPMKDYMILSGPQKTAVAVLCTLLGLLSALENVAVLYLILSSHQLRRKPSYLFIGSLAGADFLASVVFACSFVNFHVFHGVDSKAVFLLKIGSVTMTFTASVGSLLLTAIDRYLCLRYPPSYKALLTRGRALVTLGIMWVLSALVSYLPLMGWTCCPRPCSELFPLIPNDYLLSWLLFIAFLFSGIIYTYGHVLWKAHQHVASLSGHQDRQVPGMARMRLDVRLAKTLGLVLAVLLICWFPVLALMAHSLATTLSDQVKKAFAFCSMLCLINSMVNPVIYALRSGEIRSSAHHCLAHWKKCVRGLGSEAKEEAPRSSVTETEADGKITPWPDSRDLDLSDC
# Assays:
# [1] = molecular target: human CB1 (Homo sapiens (Human), UniProt P21554); assay: In vitro cannabinoid receptor activity assay (calcium mobilization, FLIPR) in CHO cells expressing human CB1 and Gαq16; assay type: cell-based
# Protocol: (§1) In vitro cannabinoid receptor activity assay. Chinese Hamster Ovary (CHO) cells stably expressing either human CB1 or CB2 cDNA and the promiscuous G-protein Gαq16 were transferred to each well of a black Costar 96-well optical bottom plate (Corning Corporation). Each plate was incubated at 37° C. for 24 hr to confluence. The culture media was removed from the plates and cells were subsequently loaded with a fluorescent calcium probe (Calcium 5 dye, Molecular Devices) at a final loading concentration of 2 μM in a HBSS-based buffer containing 20 mM HEPES, 1% BSA and 10 μM Probenecid (Sigma) in a total volume of 225 μl. Cells were incubated at 37° C. for 1 hr and then stimulated with various concentrations of a test agent using a FLIPR Tetra plate-reader, which automatically added the agonist at 10× concentration to each well after reading baseline values for ˜17 sec. Agonist-mediated change in fluorescence (488 nm excitation, 525 nm emission) was monitored in each well at 1 sec intervals for 60 sec and reported for each well. Data were analyzed using Prism software (GraphPad). Non-linear regression analysis was performed to fit data and obtain maximum response (Emax), effective concentration for 50% response (EC50), correlation coefficient (r2) and other parameters. All experiments were performed 3-6 times to ensure reproducibility. […]
# [2] = molecular target: human CB2 (Homo sapiens (Human), UniProt P34972); assay: In vitro cannabinoid receptor activity assay (calcium mobilization, FLIPR) in CHO cells expressing human CB2 and Gαq16; assay type: cell-based; settings: percentage of the maximum CP55940 signal
# Protocol: as §1
structure (smiles),measurement,setting,value
CC(=O)Nc1cccc(C(C)(C)NC(=O)c2nn(Cc3ccc(F)cc3)c3ccccc23)c1,hCB1 Ca Span,"[1]; percentage of the maximum CP55940 signal, hCB1",15%
same,EC50,"[1]; read-out: hCB1 Ca EC50, CHO cells, hCB1, calcium fluorescence",800 nM
same,hCB2 Ca Span,[2],67%
